Reference: US20120213826A1, “Use of Pro-Inflammatory Compounds for Promoting Bone Formation” (Imperial Innovations Limited, priority 2009, published 2012)

How the values were obtained:
[1] = system: muscle-derived stromal cells (MDSC); assay: MDSC proliferation (CellTiter-Glo luminescent cell viability assay); assay type: cell-based; conditions: Example 3; recombinant human BMPs, data not shown
Procedure: CellTiter-Glo® luminescent cell viability assay for MDSC in culture with A: TNF-α, B: IL-6 and C: IL-1β. 2.5×10^3 cells were cultured in triplicate for 1, 3 and 5 days in human serum-containing media ± recombinant human cytokine at the concentration indicated. The number of viaBIe cells in culture was determined using the assay, where luminescent signal is directly proportional to the concentration of ATP from viaBIe cells.
It was hypothesized that as proliferation of MDSC cultured in supernatant was not fracture-dependent (see FIG. 25C), cytokines were not responsiBIe for the pattern of cellular proliferation seen. In order to test this hypothesis, proliferation of MDSC in human serum-containing media with rhTNF-α, rhIL-6 and rhIL-1β was tested using the CellTiter-Glo® luminescent cell viability assay was used (Promega Corp., Madison, Wis.).
This method assays the number of viaBIe cells in culture, by measuring adenosine triphosphate (ATP), where the luminescent signal is directly proportional to the number of ATP present. […] Proliferation was not dose-dependently-linked to the presence of pro-inflammatory cytokines TNF-α, IL-1β or IL-6 (FIG. 28).

[2] = system: muscle-derived stromal cells (MDSC); assay: ALP quantification assay, osteogenic differentiation of cultured MDSC; assay type: cell-based, human
From the text: FIG. 26 TNF-α and IL-6 promote osteogenic differentiation of MDSC A-D: ALP quantification assays after culture of 1×10^4 MDSC for 7 days in a 96-well plate in triplicate with: A: fracture supernatant, ±antibody neutralization of BMPs 2/4 7 and to TGF-β. The immunoglobulin isotype controls used included IgG^1 for AbBMP-2/4 and AbTGF-β, and IgG^2B for Ab-BMP-7. B: human serum containing culture medium with the addition of recombinant human BMPs and TGF-β. C: fracture supernatant±antibody neutralization of TNF-α, IL-6 and IL-1β. The IgG^1 immunoglobulin was used as the antibody isotype control. D: human serum-containing culture medium with the addition of recombinant human TNF-α, IL-6 and IL-1β. […]
To investigate the fracture-derived stimulus for osteogenic differentiation of MDSC, fracture supernatants were prepared using human tibial fracture fragments obtained within 24 hours of injury (ethics approval number—COREC No: 07/Q0411/30). Supernatants harvested from non-fractured tibiae in patients requiring amputation as a result of severe foot trauma cut atraumatically with a fine surgical saw were used as “non-fracture controls.” Using RT-PCR and ALP quantification, we estaBIished that only fracture supernatant but not supernatants from surgically cut bone stimulated osteogenic differentiation of MDSC in vitro. […]

B1: BMP2: recombinant human bone morphogenetic protein 2 (protein, UniProt P12643 283-396, looked up)
Bone morphogenetic protein 2: QAKHKQRKRLKSSCKRHPLYVDFSDVGWNDWIVAPPGYHAFYCHGECPFPLADHLNSTNHAIVQTLVNSVNSKIPKACCVPTELSAISMLYLDENEKVVLKNYQDMVVEGCGCR
cell proliferation in excess of the media-only control [1]: did not induce cell proliferation | ALP expression (osteogenic differentiation) in cultured MDSC ([2]; Example 1, exogenous recombinant human factor added to MDSC culture (FIG. 8, 10, 12)): promotes osteogenic differentiation | ALP expression by MDSC ([2]; Example 3, 7 days in human serum-containing media with recombinant human factor (FIG. 26B, 26D)): did not induce ALP expression
